Holding throughout (assay): FOREST: bead pull-down of RNA structure library v1, barcode microarray; U1A/LIN28A: 20 mM HEPES pH 7.5, 80 mM KCl, 20 mM NaCl, 10% glycerol, 2 mM DTT, 0.1 ug/uL BSA, 4 C; BG4/CIRBP/DHX36: 10 mM Tris-HCl pH 7.5, 100 mM KCl (or LiCl),; high values mean tight binding
For one experiment, the target named is T1, LIN28A (human?, UniProt Q9H9Z2 1-209).
T1 sequence: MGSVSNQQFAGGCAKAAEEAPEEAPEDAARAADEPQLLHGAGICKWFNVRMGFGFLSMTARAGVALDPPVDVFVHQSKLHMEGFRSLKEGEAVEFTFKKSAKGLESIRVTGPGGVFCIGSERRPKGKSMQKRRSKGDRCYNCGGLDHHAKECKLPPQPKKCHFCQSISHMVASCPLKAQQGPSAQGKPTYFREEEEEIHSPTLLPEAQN

The target of a further experiment is T2, CIRBP (Homo sapiens, UniProt Q14011 1-172).
T2 sequence: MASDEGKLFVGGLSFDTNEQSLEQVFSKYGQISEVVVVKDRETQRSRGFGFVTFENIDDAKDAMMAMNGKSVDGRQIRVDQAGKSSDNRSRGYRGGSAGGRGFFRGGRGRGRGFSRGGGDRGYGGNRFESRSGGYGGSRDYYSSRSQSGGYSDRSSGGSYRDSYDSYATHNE

The target in another experiment is T3, DHX36 (Homo sapiens, UniProt Q9H2U1 1-1008).
T3 sequence: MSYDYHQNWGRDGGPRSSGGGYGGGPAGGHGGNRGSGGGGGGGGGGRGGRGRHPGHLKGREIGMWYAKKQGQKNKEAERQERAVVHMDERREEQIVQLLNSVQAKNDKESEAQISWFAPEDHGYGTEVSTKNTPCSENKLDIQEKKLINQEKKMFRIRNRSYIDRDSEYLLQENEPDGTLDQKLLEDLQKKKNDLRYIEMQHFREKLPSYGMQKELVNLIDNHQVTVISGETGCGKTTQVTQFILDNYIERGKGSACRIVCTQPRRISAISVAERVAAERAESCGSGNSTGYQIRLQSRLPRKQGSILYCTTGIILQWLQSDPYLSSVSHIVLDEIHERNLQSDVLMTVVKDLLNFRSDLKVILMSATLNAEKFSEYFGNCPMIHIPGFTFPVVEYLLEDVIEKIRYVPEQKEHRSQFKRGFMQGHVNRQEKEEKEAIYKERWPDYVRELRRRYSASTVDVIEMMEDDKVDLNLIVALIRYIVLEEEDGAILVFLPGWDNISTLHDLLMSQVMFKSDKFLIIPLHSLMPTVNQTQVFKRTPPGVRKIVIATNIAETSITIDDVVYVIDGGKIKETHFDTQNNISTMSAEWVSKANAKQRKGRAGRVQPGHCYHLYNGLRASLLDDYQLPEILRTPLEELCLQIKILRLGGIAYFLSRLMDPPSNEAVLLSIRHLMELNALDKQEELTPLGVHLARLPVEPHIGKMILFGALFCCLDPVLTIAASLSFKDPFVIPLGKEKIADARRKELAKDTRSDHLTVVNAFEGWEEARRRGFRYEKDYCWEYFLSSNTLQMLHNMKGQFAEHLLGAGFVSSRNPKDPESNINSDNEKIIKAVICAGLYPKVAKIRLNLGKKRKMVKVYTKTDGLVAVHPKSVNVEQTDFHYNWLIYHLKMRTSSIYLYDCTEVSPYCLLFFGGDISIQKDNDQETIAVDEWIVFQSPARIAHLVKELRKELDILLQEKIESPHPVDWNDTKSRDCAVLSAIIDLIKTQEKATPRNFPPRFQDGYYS

The list shows a part of the results.

B1: hsa-mir-512-2_512-1 (structured_RNA)
RNA: GGGACUCUCCCGGUGUCAUACGUUAGCGGGUGUACGAAGUUUCAGCACUUUCUGGUGCCAGAAUGAAAGUGCUGAAGCUUCGUGCAC
On to B1, for which the binding signal is 0.84 z-score in the experiment with LIN28A, -0.628 z-score with CIRBP and -0.132 z-score in the experiment with DHX36.

B2: hsa-mir-6749 (structured_RNA)
RNA: GGGAAAUUAAACUGGCGGUGUACCUGUCGGUGUACGAAGUUUCAGCGGAGCUCUGUCCUGUCUCACUCAUUGCUCCGCUGAAGCUUCGUGCAC
On to B2, for which the binding signal was 0.841 z-score with LIN28A, 1.01 z-score in the experiment with CIRBP and 0.363 z-score with DHX36.

B3: hsa-mir-6085 (structured_RNA)
RNA: GGGAAUAUCAGGUGCUAUAUUGCCGACAGGUGUACGAAGUUUCAGCUACAUAGUUCAUGCUGAGGCCGGGAUUUCAUGCAGAAAACUGGUUGCAAAAGGUGCUGAAGGCUGAAGCUUCGUGCAC
On to B3, for which the binding signal was 0.854 z-score in the experiment with LIN28A, 1.2 z-score with CIRBP and -0.3 z-score in the experiment with DHX36.

B4: hsa-mir-4528 (structured_RNA)
RNA: GGGACGGUCAAAGCUGCGUCAGCACUAAGGUGUACGAAGUUUCAGCUGAUCAUUAUAUGUAUGAUGAGAUCAUGCUGAAGCUUCGUGCAC
B4: the binding signal in the experiment with LIN28A was 0.836 z-score; in the experiment with CIRBP, -1.83 z-score; with DHX36 it was -0.0532 z-score.

B5: hsa-mir-1271 (structured_RNA)
RNA: GGGAAGUAGUCCAUCCGAGUACCCAGUAGGUGUACGAAGUUUCAGCCACUCAGUAAAUAUUUGUUGAGUGGCUGAAGCUUCGUGCAC
As to B5, the binding signal in the experiment with LIN28A was determined as 0.845 z-score; with CIRBP, 1.91 z-score; with DHX36, 0.692 z-score.

B6: hsa-mir-761 (structured_RNA)
RNA: GGGAAAGCGGGUAGCAUAUAAGCCAACCGGUGUACGAAGUUUCAGCCACAGUUCUGGGCUGAAGCUUCGUGCAC
For B6, the binding signal with LIN28A is 0.852 z-score; with CIRBP, 0.309 z-score; in the experiment with DHX36, 0.168 z-score.

B7: hsa-mir-3690-1_3690-2 (structured_RNA)
RNA: GGGAAACAGUAAAGCCGGCAAGAAACCAGGUGUACGAAGUUUCAGCAAAGAGGUGUUUCUACUCCAUGCUGAAGCUUCGUGCAC
Take B7: the figures for the binding signal with LIN28A, with CIRBP and in the experiment with DHX36 were 0.812 z-score, 1.52 z-score and 0.246 z-score, respectively.

B8: hsa-mir-1203 (structured_RNA)
RNA: GGGACAACAUGAAUUGGCCGAGAAGUGAGGUGUACGAAGUUUCAGCGCUCAAGCCACAGCAGGGUGUUUAGCGCUCUUCAGUGGCUCCAGGCUGAAGCUUCGUGCAC
Take B8: the binding signal in the experiment with LIN28A was 0.842 z-score; with CIRBP, 1.59 z-score; with DHX36 it was -0.2 z-score.

B9: hsa-mir-4517 (structured_RNA)
RNA: GGGAAACGUUAAGUGGGAUUCGCUAGUCGGUGUACGAAGUUUCAGCUGAGGAGCUUAGCAAGUAGCUAAGGCCAGAGCUGAAGCUUCGUGCAC
As to B9, the binding signal with LIN28A is 0.841 z-score; with CIRBP, 1.06 z-score; with DHX36 it was -0.00972 z-score.

B10: hsa-mir-498 (structured_RNA)
RNA: GGGAACGCUGCUGGGAACCCAAUACUGUGGUGUACGAAGUUUCAGCUUUCUAUAACUGGAUGAAAGCUGAAGCUUCGUGCAC
For B10, the binding signal with LIN28A is 0.859 z-score; with CIRBP it was -0.759 z-score; in the experiment with DHX36 it was 0.289 z-score.

B11: hsa-mir-8061 (structured_RNA)
RNA: GGGAAAGGAAUCUGCGAAGUUAGAGGUUGGUGUACGAAGUUUCAGCUGUUCAGUGGGAUUUGGAGAGCUGAAGCUUCGUGCAC
With B11, the binding signal in the experiment with LIN28A is 0.83 z-score; in the experiment with CIRBP it was 2.12 z-score; with DHX36 it was 1.93 z-score.

B12: hsa-mir-6784 (structured_RNA)
RNA: GGGACGAGUUAAGACCAGCCGAUGCAAAGGUGUACGAAGUUUCAGCAGGGACCCCCGGAGUCUGUCACGGUCUCAGCUGAAGCUUCGUGCAC
B12: the results for the binding signal with LIN28A, with CIRBP and with DHX36 were 0.838 z-score, 0.134 z-score and -0.219 z-score, respectively.

B13: hsa-mir-4707 (structured_RNA)
RNA: GGGAGUAGGCACCCGGUCAAGAGCUAAAGGUGUACGAAGUUUCAGCGGUUCUGGGGUGUAGACGCUGCUGGCCAGCCGCUGAAGCUUCGUGCAC
B13: the binding signal was 0.815 z-score with LIN28A, -0.553 z-score in the experiment with CIRBP and 0.67 z-score in the experiment with DHX36.

B14: hsa-mir-802 (structured_RNA)
RNA: GGGAACCCUAAACGGAAUGCGAUCGAGCGGUGUACGAAGUUUCAGCUUGUGUCCAUCAUGCAACAAGCUGAAGCUUCGUGCAC
B14: the binding signal turned out to be 0.82 z-score with LIN28A, 1.34 z-score in the experiment with CIRBP and 0.0941 z-score with DHX36.

B15: hsa-mir-2681 (structured_RNA)
RNA: GGGAAUAGGCCCGCAACUGGAAUACUAUGGUGUACGAAGUUUCAGCGAGACUGCCCAAAGACUCUUCAGUAUCGCUGAAGCUUCGUGCAC
Consider B15, for which the binding signal with LIN28A turned out to be 0.841 z-score; with CIRBP, 0.285 z-score; with DHX36, 0.17 z-score.

B16: PARIS_ID16 (structured_RNA)
RNA: GGGAGUUGUGAAAGGUUCGCCUGUCACGGGUGUACGAAGUUUCAGCUCCUACUGGUGGUCUGUAAGAUGAGUUAGGGGCUGAAGCUUCGUGCAC
For B16, the binding signal with LIN28A was 0.844 z-score; in the experiment with CIRBP, 0.615 z-score; in the experiment with DHX36, 0.136 z-score.

B17: hsa-mir-1295a (structured_RNA)
RNA: GGGACUGUAGGACCAAGCGUUAGUUAAUGGUGUACGAAGUUUCAGCCUAUUCAGAAAUGUGGCCUGUGAUUAGGCUGAAGCUUCGUGCAC
In the case of B17, the binding signal with LIN28A was 0.857 z-score; in the experiment with CIRBP, 0.541 z-score; in the experiment with DHX36, -0.72 z-score.

B18: hsa-mir-6500 (structured_RNA)
RNA: GGGAAUCAUGGGAAGUAUUACGUACGACGGUGUACGAAGUUUCAGCGUGUCCUUUCUUCUGAGAGCUGGACACGCUGAAGCUUCGUGCAC
In the case of B18, the values for the binding signal with LIN28A, with CIRBP and with DHX36 were 0.857 z-score, 1.46 z-score and 1.16 z-score, respectively.

B19: hsa-mir-7854 (structured_RNA)
RNA: GGGAAUAUCAUGAGUGCGUUUGAAGCCCGGUGUACGAAGUUUCAGCUUGAGCAUCUUCUGGGCAGCUGAGCUGAAGCUUCGUGCAC
As for B19, the binding signal with LIN28A was found to be 0.826 z-score; with CIRBP it was 1.49 z-score; with DHX36, 0.527 z-score.

B20: hsa-mir-4507 (structured_RNA)
RNA: GGGAAACUGUAAAACAGUGCACCCUGGAGGUGUACGAAGUUUCAGCUGGGUUAAGCCGAGCUGGGCUGAAGCUUCGUGCAC
Consider B20, for which the figures for the binding signal with LIN28A, with CIRBP and in the experiment with DHX36 were 0.838 z-score, 0.717 z-score and -1.41 z-score, respectively.

B21: hsa-mir-217 (structured_RNA)
RNA: GGGAAAUUGUGAGGUAGAAUUGCGCAACGGUGUACGAAGUUUCAGCGGAUAAGAAUCAGUCACGCUGAAGCUUCGUGCAC
Regarding B21, the binding signal with LIN28A was determined as 0.84 z-score; in the experiment with CIRBP it was 1.89 z-score; with DHX36, 1.71 z-score.

B22: hsa-mir-3148 (structured_RNA)
RNA: GGGACUAGAUAUUGCCGACAAUUACGUGGGUGUACGAAGUUUCAGCGCUUAUUGAUGUAGCCAACAAGCGCUGAAGCUUCGUGCAC
Regarding B22, the binding signal with LIN28A is 0.82 z-score; with CIRBP it was 0.592 z-score; with DHX36, -0.338 z-score.

B23: hsa-mir-3918 (structured_RNA)
RNA: GGGAAUGUCCAGCCUGGCGAUCAAUCUGGGUGUACGAAGUUUCAGCGACUGCUCAAGGUCAAAGGGGUCGCUGAAGCUUCGUGCAC
As for B23, the values for the binding signal with LIN28A, in the experiment with CIRBP and in the experiment with DHX36 were 0.843 z-score, 0.647 z-score and 2.06 z-score, respectively.

B24: hsa-mir-6849 (structured_RNA)
RNA: GGGAUCUAUCGGGGAGCUGCAGUAUACUGGUGUACGAAGUUUCAGCGUGUGGAGAGAGCACUGAGCCUGCCCACCGCUGAAGCUUCGUGCAC
Take B24: the binding signal with LIN28A was 0.82 z-score; with CIRBP it was -0.281 z-score; with DHX36, 0.899 z-score.

B25: hsa-mir-5194 (structured_RNA)
RNA: GGGAAUCAAGCAGUGUGGCAGGAAUCUAGGUGUACGAAGUUUCAGCCUCAGGAAUUGGAUAAGCUUUUCUGAGGCUGAAGCUUCGUGCAC
As for B25, the binding signal with LIN28A stood at 0.829 z-score; with CIRBP, 0.765 z-score; with DHX36, 0.542 z-score.

B26: hsa-mir-495 (structured_RNA)
RNA: GGGAAAGGGCGAUCUUACACCUCCGACUGGUGUACGAAGUUUCAGCUUUUCGCUUUAUAUGUGACGAAACGCUGAAGCUUCGUGCAC
As for B26, the binding signal was determined as 0.832 z-score with LIN28A, 1.29 z-score in the experiment with CIRBP and 0.35 z-score with DHX36.
